Assay results published in patent US6916916.

By UniProt entry, the sequences of proteins in these tests, tags left out. Residues count along the entry.
human serum transferrin, P02787, UniProt P02787, 20-698: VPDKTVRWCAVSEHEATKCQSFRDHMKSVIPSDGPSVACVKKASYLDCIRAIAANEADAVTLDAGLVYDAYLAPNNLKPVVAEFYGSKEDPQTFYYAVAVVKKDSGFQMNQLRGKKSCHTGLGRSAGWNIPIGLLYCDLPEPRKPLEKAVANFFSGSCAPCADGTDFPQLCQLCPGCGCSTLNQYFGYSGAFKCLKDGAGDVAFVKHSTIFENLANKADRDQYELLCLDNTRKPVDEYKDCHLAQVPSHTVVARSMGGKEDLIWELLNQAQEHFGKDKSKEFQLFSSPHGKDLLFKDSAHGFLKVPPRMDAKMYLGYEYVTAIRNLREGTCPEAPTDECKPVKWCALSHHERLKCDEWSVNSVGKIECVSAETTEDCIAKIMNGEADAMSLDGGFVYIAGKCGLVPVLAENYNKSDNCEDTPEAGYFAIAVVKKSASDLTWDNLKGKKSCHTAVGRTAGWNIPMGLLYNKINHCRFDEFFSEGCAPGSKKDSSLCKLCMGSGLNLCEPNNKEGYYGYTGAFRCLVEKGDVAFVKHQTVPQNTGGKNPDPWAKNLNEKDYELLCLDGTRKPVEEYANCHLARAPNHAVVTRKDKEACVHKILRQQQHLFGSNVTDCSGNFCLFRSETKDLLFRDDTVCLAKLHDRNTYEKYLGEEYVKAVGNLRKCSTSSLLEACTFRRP

Legend:
[1] = biological target: T1, recombinant human deoxyribonuclease 1, P24855
T1 chain: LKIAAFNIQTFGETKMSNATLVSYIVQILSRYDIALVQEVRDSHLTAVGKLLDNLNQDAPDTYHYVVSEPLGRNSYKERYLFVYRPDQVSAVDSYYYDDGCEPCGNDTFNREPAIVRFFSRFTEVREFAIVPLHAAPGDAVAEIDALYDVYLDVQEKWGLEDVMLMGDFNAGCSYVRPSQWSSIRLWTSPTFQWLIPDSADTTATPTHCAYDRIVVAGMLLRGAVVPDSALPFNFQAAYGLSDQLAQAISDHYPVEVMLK

[2] = biological target: human serum transferrin, P02787

B1: CHO cell sialidase (purified from cell culture fluid of CHO 14.16 cells, 43 kDa) (protein)
chain: MATCPVLQKETLFQTGDYAYRIPALIYLSKQKTLLAFAEKRLTKTDEHADLFVLRRGSYNADTHQVQWQAEEVVTQAYLEGHRSMSPCPLYDKQTRTLFLFFIAVRGQISEHHQLQTGVNVTRLCHITSTDHGKTWSAVQDLTDTTIGSTHQDWATFGVGPGHCLQLRNTAGSLLVPAYAYRKQPPIHAPAPSAFCFLSHDHGSTWELGHFVSQNSLECQVAEVGTGAERVVYLNARSCLGARVQAQSPNSGLDFQDNQVVSKLVEPPKGCHGSVIAFPNPTSKADALDVWLLYTHPTDSRKRTNLGVYLNQKPLDPTTWSAPTLLATGICAYSDLQNMGHGPDGSPQFGCLYESNNYEEIVFLMFTLKQAFPAVFGAQ
Km [1]: 5.8 mM
Vmax [1]: 12 µmol/min/mg
Km [2]: 4.1 mM
